Measured values reported in ChEMBL document CHEMBL3785012, “Cell-penetrating conjugates of pentaglutamylated methotrexate as potential anticancer drugs against resistant tumor cells” (Eur J Med Chem, 2016).

Assays:
MDA-MB-231 [1] = experiment: Cytostatic activity against human MDA-MB-231 cells preincubated for 3 hrs followed by serum treatment for 72 hrs measured on day 4 by MTT assay; assay type: functional, cell-based
MCF7 [2] = experiment: Cytostatic activity against human MCF7 cells preincubated for 3 hrs followed by serum treatment for 72 hrs measured on day 4 by MTT assay; assay type: functional, cell-based
MCF7 [3] = experiment: Drug uptake in human MCF7 cells at 1 uM preincubated for 90 mins followed by compound wash out and subsequent trypsin addition for 10 mins by 5 (6)-carboxy-fluorescein based flow cytometric analysis; assay type: ADME, cell-based; conditions: mcf7, 10 min
MCF7 [4] = experiment: Drug uptake in human MCF7 cells at 5 uM preincubated for 90 mins followed by compound wash out and subsequent trypsin addition for 10 mins by 5 (6)-carboxy-fluorescein based flow cytometric analysis; assay type: ADME, cell-based; conditions: mcf7, 10 min
MCF7 [5] = experiment: Drug uptake in human MCF7 cells at 10 uM preincubated for 90 mins followed by compound wash out and subsequent trypsin addition for 10 mins by 5 (6)-carboxy-fluorescein based flow cytometric analysis; assay type: ADME, cell-based; conditions: mcf7, 10 min
MDA-MB-231 [6] = experiment: Drug uptake in human MDA-MB-231 cells at 1 to 10 uM preincubated for 90 mins followed by compound wash out and subsequent trypsin addition for 10 mins by 5 (6)-carboxy-fluorescein based flow cytometric analysis; assay type: ADME, cell-based; conditions: mda-mb-231, 10 min

CC[C@H](C)[C@H](NC(=O)[C@H](CCCCN)NC(=O)[C@@H](NC(=O)[C@H](CCC(N)=O)NC(=O)[C@@H](N)CCCNC(=N)N)[C@@H](C)CC)C(=O)N[C@@H](Cc1c[nH]c2ccccc12)C(=O)N[C@@H](Cc1ccccc1)C(=O)N[C@@H](CCC(N)=O)C(=O)N[C@@H](CC(N)=O)C(=O)N[C@@H](CCCNC(=N)N)C(=O)N[C@@H](CCCNC(=N)N)C(=O)N[C@@H](CCSC)C(=O)N[C@@H](CCCCN)C(=O)N[C@@H](Cc1c[nH]c2ccccc12)C(=O)N[C@@H](CCCCN)C(=O)N[C@@H](CCCCN)C(=O)O
IC50 (MDA-MB-231 [1]): > 100 µM
IC50 (MCF7 [2]): > 100 µM
Flu intensity (MCF7 [3]): 1728
Flu intensity (MCF7 [4]): < 7361
Flu intensity (MCF7 [5]): < 12310
Drug uptake (MDA-MB-231 [6]): Active
